# Assay: Distribution coefficients of ABE mixtures between DME and aqueous phase in agitated pressure vessel, HPLC
# Assay type: physicochemical
# Details: 30° C.
# Procedure: The compositions of the aqueous mixtures were based on concentrations typically produced in a cellulosic fermentation.
# Mixtures were charged to a pressure vessel and agitated to provide adequate contacting between the aqueous and solvent (DME) phases. Heat tape was used to control the temperature of the liquid that was measured by thermocouples. Pressure and temperature measurements were taken every five minutes. After temperature and pressure stabilization agitation was ceased and the liquid phases were allowed to fully settle.
# A mass balance was also performed on each component of the ABE and BE mixtures to determine a degree of accuracy of the results.
substance,measurement,value
n-butanol,distribution coefficient (slope of line fit),2.83
